Structures can show the parent of a compound that is named as a salt. Where two headings read alike, the source gives them in different places.
What was measured:
[1] = test system: D(-)-Mandelate-Dehydrogenase; assay: Influence of various reagents and metal ions on the enzymatic activity (reduction of benzoyl formate); assay type: biochemical, Lactobacillus curvatus DSM 20019; conditions: for Relative Activity (%): enzyme incubated 5 minutes at 20° C. with reagent; for Inhibition of the enzyme (in words): 0.1 mM
[2] = test system: D(-)-Mandelate-Dehydrogenase; assay: Dependency of the speed of the dehydrogenation of D-2-hydroxycarboxylic acids on substrate and NAD+ concentration (Michaelis-Menten); assay type: biochemical, Lactobacillus curvatus DSM 20019; conditions: for max. Initial Reaction Velocity Vmax (%) (relative to D(-)-Mandelate) / Km: dehydrogenation; for max. Initial Reaction Velocity Vmax (%) (relative to D(-)-Mandelate): 2-hydroxyacid 0.25 to 300 mM
[3] = test system: D(-)-Mandelate-Dehydrogenase; conditions: pH 7.0
[4] = read-out: KM Value, reduction, 0.25 mM NADH, 2-ketoacid 0.05 to 9 mM
[5] = reduction, 0.25 mM NADH, 2-ketoacid 0.05 to 9 mM

SMILES | Relative Activity (%) ([1]; reagent 0.1 mM) | Relative Activity (%) ([1]; reagent 1 mM) | Relative Activity (%) ([1]; reagent 10 mM) | other results
[Cl][Ni][Cl] [NiCl2] | 95 | 91 | 68 | –
O=S(=O)([O-])[O-].[Co+2] [CoSO4] | 97 | 91 | – | –
[Cl][Hg][Cl] [HgCl2] | 0 | 0 | 0 | Influence of inhibitors (in words) [1]: strongly inhibited; Inhibition of the enzyme (in words) [1]: strongly inhibited
O=C(O)C(O)c1ccccc1 (racemic) [D,L-Mandelate] | – | – | – | max. Initial Reaction Velocity Vmax (%) (relative to D(-)-Mandelate) ([2]; pH 8.0, 3 mM NAD+): 100%
OCCS [2-Mercaptoethanol] | 96 | 93 | 90 | –
O=C(O)C(=O)Cc1ccc(O)c(O)c1 [3-(3'-4') Dihydroxyphenyl-pyruvate] | – | – | – | Km [3, 4]: 370 µM; Max. Initial Reaction Speed Vmax (%) (relative to Benzoyl formate) [3, 5]: 4%
O=C(O)C(O)Cc1ccccc1 (racemic) [D,L-Phenyllactate] | – | – | – | max. Initial Reaction Velocity Vmax (%) (relative to D(-)-Mandelate) ([2]; pH 8.0, 3 mM NAD+): 22%; Km ([2]; pH 8.0, 3 mM NAD+, D-enantiomer assumed 50% in D,L-compounds, read-out: KM-Value): 2500 µM
[Cl][Cd][Cl] [CdCl2] | 93 | 82 | – | –
c1ccc(-c2ccccn2)nc1 [2.2-Dipyridil] | 100 | – | 86 | –
[Cl][Fe]([Cl])[Cl] [FeCl3] | 91 | – | – | –
[Na+].[Na+].[O]=[Mo](=[O])([O-])[O-] [Na2 MoO4] | 90 | 88 | 73 | –
[Cl-].[Cl-].[Zn+2] [ZnCl2] | – | 88 | – | –
NC(=O)C1=CN([C@@H]2O[C@H](COP(=O)(O)OP(=O)(O)OC[C@H]3O[C@@H](n4cnc5c(N)ncnc54)[C@H](O)[C@@H]3O)[C@@H](O)[C@H]2O)C=CC1 [NADH, nicotinamide-adenine-dinucleotide] | – | – | – | Concentration at which the optimum speed of reaction was reached ([3]; NADH varied 0.01 to 0.30 mM, 6 mM benzoyl formate): 0.25 mM; Km ([3]; read-out: KM value for NADH, reduction, 6 mM benzoyl formate): 36 µM
O=S(=O)([O-])[O-].[Cu+2] [CuSO4] | 6.4 | 6.1 | – | Influence of inhibitors (in words) [1]: strongly inhibited; Inhibition of the enzyme (in words) [1]: strongly inhibited
O[C@H](CS)[C@H](O)CS (racemic) [Dithiothreitol] | 100 | 100 | 100 | –
[K+].[K+].[O]=[Cr](=[O])([O-])[O][Cr](=[O])(=[O])[O-] [K2 Cr2 O7] | 99 | – | – | –
NC(=O)c1ccc[n+]([C@@H]2O[C@H](COP(=O)(O)OP(=O)([O-])OC[C@H]3O[C@@H](n4cnc5c(N)ncnc54)[C@H](O)[C@@H]3O)[C@@H](O)[C@H]2O)c1 [NAD^+] | – | – | – | Concentration at which the optimum reaction was reached ([2]; NAD+ varied 0.05 mM to 6 mM, pH 8.5, 2 mM D-(-)-mandelate): 3 mM; Km ([2]; Tris/HCl pH 8.5, 2 mM D-(-)-mandelate, read-out: KM value for NAD+): 200 µM
NC(=O)CI [Iodacetamide] | 98 | 96 | 91 | –
[Cl-].[Cl-].[Mg+2] [MgCl2] | – | 89 | 81 | –
c1cnc2c(c1)ccc1cccnc12 [1.10 Phenanthroline] | 96 | 96 | – | –
[Ca+2].[Cl-].[Cl-] [CaCl2] | – | 90 | – | –
O=C(O)C(=O)c1ccccc1 [Benzoylformate, benzoyl formate] | – | – | – | Concentration at which the optimum speed of reaction was reached ([3]; benzoyl formate varied 0.02 mM to 8 mM, 0.25 mM NADH): 1.5 mM; Km [3, 4]: 220 µM; Km ([3]; read-out: KM value for the substrate benzoyl formate, reduction reaction, 0.25 mM NADH): 220 µM; Max. Initial Reaction Speed Vmax (%) (relative to Benzoyl formate) [3, 5]: 100%
